According to article PMC3759966 (The Biochemical journal, 2009):

Tests used:
Assay in all cases: Kinase profiling panel
VEGFR = assay type: biochemical
PDK1 = PDK1 (Homo sapiens, UniProt O15530); assay type: biochemical; conditions: read-out: percentage of kinase activity compared with control
PKCζ = PKCζ (Homo sapiens, UniProt Q05513); assay type: biochemical; conditions: read-out: percentage of kinase activity compared with control
MLK1 = MLK1 (Homo sapiens, UniProt P80192); assay type: biochemical; conditions: read-out: percentage of kinase activity compared with control
IRAK4 = IRAK4 (Homo sapiens, UniProt Q9NWZ3); assay type: biochemical; conditions: 10 μM inhibitor
CK1 = CK1 (Homo sapiens, UniProt P48730); assay type: biochemical; conditions: read-out: percentage of kinase activity compared with control
MSK1 = MSK1 (Homo sapiens, UniProt O75582); assay type: biochemical; conditions: read-out: percentage of kinase activity compared with control
MNK2 = MNK2 (Homo sapiens, UniProt Q9HBH9); assay type: biochemical; conditions: read-out: percentage of kinase activity compared with control
PHK = PHK (Homo sapiens, UniProt Q16816); assay type: biochemical; conditions: read-out: percentage of kinase activity compared with control
LRRK2 wild-type = LRRK2 wild-type (Homo sapiens, UniProt Q5S007); assay type: biochemical; conditions: read-out: percentage of kinase activity compared with control
TBK1 = TBK1 (Homo sapiens, UniProt Q9UHD2); assay type: biochemical; conditions: read-out: percentage of kinase activity compared with control
GSK3β = GSK3β (Homo sapiens, UniProt P49841); assay type: biochemical; conditions: read-out: percentage of kinase activity compared with control
SGK1 = SGK1 (Homo sapiens, UniProt O00141); assay type: biochemical; conditions: read-out: percentage of kinase activity compared with control
PKCα = PKCα (Homo sapiens, UniProt P17252); assay type: biochemical; conditions: read-out: percentage of kinase activity compared with control
MNK1 = MNK1 (Homo sapiens, UniProt Q9BUB5); assay type: biochemical; conditions: read-out: percentage of kinase activity compared with control
MELK = MELK (Homo sapiens, UniProt Q14680); assay type: biochemical; conditions: read-out: percentage of kinase activity compared with control
CHK1 = CHK1 (Homo sapiens, UniProt O14757); assay type: biochemical
IRR = IRR (Homo sapiens, UniProt P14616); assay type: biochemical; conditions: read-out: percentage of kinase activity compared with control
LRRK2[G2019S] = LRRK2[G2019S] (Homo sapiens, UniProt Q5S007, G2019S); assay type: biochemical; conditions: read-out: percentage of kinase activity compared with control
PIM2 = PIM2 (Homo sapiens, UniProt Q9P1W9); assay type: biochemical; conditions: read-out: percentage of kinase activity compared with control
RSK1 = RSK1 (Homo sapiens, UniProt Q15418); assay type: biochemical; conditions: read-out: percentage of kinase activity compared with control
BRSK2 = BRSK2 (Homo sapiens, UniProt Q8IWQ3); assay type: biochemical; conditions: read-out: percentage of kinase activity compared with control
CHK2 = CHK2 (Homo sapiens, UniProt O96017); assay type: biochemical; conditions: read-out: percentage of kinase activity compared with control
PRK2 = PRK2 (Homo sapiens, UniProt Q16513); assay type: biochemical; conditions: read-out: percentage of kinase activity compared with control
MINK1 = MINK1 (Homo sapiens, UniProt Q8N4C8); assay type: biochemical; conditions: read-out: percentage of kinase activity compared with control
p38δ MAPK = p38δ MAPK (Homo sapiens, UniProt O15264); assay type: biochemical; conditions: read-out: percentage of kinase activity compared with control
DYRK3 = DYRK3 (Homo sapiens, UniProt O43781); assay type: biochemical; conditions: read-out: percentage of kinase activity compared with control
GCK = GCK (Homo sapiens, UniProt Q12851); assay type: biochemical; conditions: read-out: percentage of kinase activity compared with control
EPH-B3 = EPH-B3 (Homo sapiens, UniProt P54753); assay type: biochemical; conditions: read-out: percentage of kinase activity compared with control
CaMK1 = CaMK1 (Homo sapiens, UniProt Q14012); assay type: biochemical; conditions: read-out: percentage of kinase activity compared with control
NK2 = NK2 (Homo sapiens, UniProt P45984); assay type: biochemical; conditions: 10 μM inhibitor
IKKβ = IKKβ (Homo sapiens, UniProt O14920); assay type: biochemical; conditions: read-out: percentage of kinase activity compared with control
MST4 = MST4 (Homo sapiens, UniProt Q9P289); assay type: biochemical; conditions: read-out: percentage of kinase activity compared with control
RSK2 = RSK2 (Homo sapiens, UniProt P51812); assay type: biochemical; conditions: read-out: percentage of kinase activity compared with control
PIM3 = PIM3 (Homo sapiens, UniProt Q86V86); assay type: biochemical; conditions: read-out: percentage of kinase activity compared with control
S6K1 = S6K1 (Homo sapiens, UniProt P23443); assay type: biochemical; conditions: read-out: percentage of kinase activity compared with control
PKA = PKA (Homo sapiens, UniProt P17612); assay type: biochemical; conditions: read-out: percentage of kinase activity compared with control
SYK = SYK (Homo sapiens, UniProt P43405); assay type: biochemical
PAK4 = PAK4 (Homo sapiens, UniProt O96013); assay type: biochemical; conditions: read-out: percentage of kinase activity compared with control
Aurora B kinase = Aurora B kinase (Homo sapiens, UniProt Q96GD4); assay type: biochemical; conditions: read-out: percentage of kinase activity compared with control
CaMKKβ = CaMKKβ (Homo sapiens, UniProt Q96RR4); assay type: biochemical; conditions: read-out: percentage of kinase activity compared with control
BTK = BTK (Homo sapiens, UniProt Q06187); assay type: biochemical; conditions: 10 μM inhibitor
PRAK = PRAK (Homo sapiens, UniProt Q8IW41); assay type: biochemical; conditions: read-out: percentage of kinase activity compared with control
PKBβ = PKBβ (Homo sapiens, UniProt P31751); assay type: biochemical; conditions: read-out: percentage of kinase activity compared with control
IKKε = IKKε (Homo sapiens, UniProt Q14164); assay type: biochemical; conditions: read-out: percentage of kinase activity compared with control
PKD1 = PKD1 (Homo sapiens, UniProt Q15139); assay type: biochemical; conditions: read-out: percentage of kinase activity compared with control
ERK8 = ERK8 (Homo sapiens, UniProt Q8TD08); assay type: biochemical; conditions: read-out: percentage of kinase activity compared with control
IR-HIS = IR-HIS (Homo sapiens, UniProt P06213); assay type: biochemical; conditions: read-out: percentage of kinase activity compared with control
DYRK2 = DYRK2 (Homo sapiens, UniProt Q92630); assay type: biochemical; conditions: read-out: percentage of kinase activity compared with control
MKK1 = MKK1 (Homo sapiens, UniProt Q02750); assay type: biochemical; conditions: read-out: percentage of kinase activity compared with control
TTK = TTK (Homo sapiens, UniProt P33981); assay type: biochemical; conditions: read-out: percentage of kinase activity compared with control
p38β MAPK = p38β MAPK (Homo sapiens, UniProt Q15759); assay type: biochemical; conditions: read-out: percentage of kinase activity compared with control
YES1 = YES1 (Homo sapiens, UniProt P07947); assay type: biochemical; conditions: read-out: percentage of kinase activity compared with control
AMPK = assay type: biochemical; conditions: 10 μM inhibitor
LKB1 = LKB1 (Homo sapiens, UniProt Q15831); assay type: biochemical; conditions: read-out: percentage of kinase activity compared with control
NUAK1 = NUAK1 (Homo sapiens, UniProt O60285); assay type: biochemical; conditions: 10 μM inhibitor
PIM1 = PIM1 (Homo sapiens, UniProt P11309); assay type: biochemical; conditions: read-out: percentage of kinase activity compared with control
ROCK2 = ROCK2 (Rattus norvegicus, UniProt Q62868); assay type: biochemical; conditions: read-out: percentage of kinase activity compared with control
p38α MAPK = p38α MAPK (Homo sapiens, UniProt Q16539); assay type: biochemical; conditions: 10 μM inhibitor
PAK5 = PAK5 (Homo sapiens, UniProt Q9P286); assay type: biochemical; conditions: read-out: percentage of kinase activity compared with control
JNK1 = JNK1 (Homo sapiens, UniProt P45983); assay type: biochemical; conditions: 10 μM inhibitor
SmMLCK = SmMLCK (Homo sapiens, UniProt Q15746); assay type: biochemical; conditions: read-out: percentage of kinase activity compared with control
Src = Src (Homo sapiens, UniProt P12931); conditions: read-out: percentage of kinase activity compared with control
IGF-1R = IGF-1R (Homo sapiens, UniProt P08069); assay type: biochemical; conditions: read-out: percentage of kinase activity compared with control
MST2 = MST2 (Homo sapiens, UniProt Q13188); assay type: biochemical; conditions: read-out: percentage of kinase activity compared with control
SRPK1 = SRPK1 (Homo sapiens, UniProt Q96SB4); assay type: biochemical; conditions: read-out: percentage of kinase activity compared with control

Compound: O=c1[nH]ccc2c(S(=O)(=O)N3CCCNCC3)cccc12 [HA-1100, hydroxyfasudil]
- percentage of kinase activity compared with control (VEGFR; 10 μM inhibitor): 115 ± 1%
- remaining activity at 10 µM (PDK1): 112 ± 4%
- remaining activity at 10 µM (PKCζ): 94 ± 8%
- remaining activity at 10 µM (MLK1): 75 ± 16%
- percentage of kinase activity compared with control (IRAK4): 87 ± 4%
- remaining activity at 10 µM (CK1): 100%
- remaining activity at 10 µM (MSK1): 17%
- remaining activity at 10 µM (MNK2): 77 ± 4%
- remaining activity at 10 µM (PHK): 89 ± 4%
- remaining activity at 10 µM (LRRK2 wild-type): 72 ± 11%
- remaining activity at 10 µM (TBK1): 98 ± 5%
- remaining activity at 10 µM (GSK3β): 91 ± 11%
- remaining activity at 10 µM (SGK1): 55 ± 13%
- remaining activity at 10 µM (PKCα): 64 ± 5%
- remaining activity at 10 µM (MNK1): 76 ± 8%
- remaining activity at 10 µM (MELK): 76 ± 2%
- percentage of kinase activity compared with control (CHK1; 10 μM inhibitor): 87 ± 1%
- remaining activity at 10 µM (IRR): 89 ± 1%
- remaining activity at 10 µM (LRRK2[G2019S]): 26 ± 1%
- remaining activity at 10 µM (PIM2): 104 ± 1%
- remaining activity at 10 µM (RSK1): 11 ± 15%
- remaining activity at 10 µM (BRSK2): 65 ± 3%
- remaining activity at 10 µM (CHK2): 89 ± 13%
- remaining activity at 10 µM (PRK2): 12%
- remaining activity at 10 µM (MINK1): 68 ± 21%
- remaining activity at 10 µM (p38δ MAPK): 100 ± 4%
- remaining activity at 10 µM (DYRK3): 99 ± 2%
- remaining activity at 10 µM (GCK): 73 ± 7%
- remaining activity at 10 µM (EPH-B3): 111 ± 2%
- remaining activity at 10 µM (CaMK1): 108 ± 14%
- percentage of kinase activity compared with control (NK2): 90 ± 5%
- remaining activity at 10 µM (IKKβ): 86 ± 6%
- remaining activity at 10 µM (MST4): 82 ± 2%
- remaining activity at 10 µM (RSK2): 41 ± 6%
- remaining activity at 10 µM (PIM3): 75 ± 1%
- remaining activity at 10 µM (S6K1): 11 ± 1%
- remaining activity at 10 µM (PKA): 89 ± 10%
- percentage of kinase activity compared with control (SYK): 112 ± 11%
- remaining activity at 10 µM (PAK4): 104 ± 4%
- remaining activity at 10 µM (Aurora B kinase): 59 ± 1%
- remaining activity at 10 µM (CaMKKβ): 93 ± 3%
- percentage of kinase activity compared with control (BTK): 108 ± 20%
- remaining activity at 10 µM (PRAK): 88 ± 16%
- remaining activity at 10 µM (PKBβ): 100 ± 3%
- remaining activity at 10 µM (IKKε): 99 ± 2%
- remaining activity at 10 µM (PKD1): 60 ± 3%
- remaining activity at 10 µM (ERK8): 76 ± 1%
- remaining activity at 10 µM (IR-HIS): 100 ± 4%
- remaining activity at 10 µM (DYRK2): 89 ± 1%
- remaining activity at 10 µM (MKK1): 63 ± 3%
- remaining activity at 10 µM (TTK): 82 ± 2%
- remaining activity at 10 µM (p38β MAPK): 90 ± 6%
- remaining activity at 10 µM (YES1): 111 ± 4%
- percentage of kinase activity compared with control (AMPK): 72 ± 2%
- remaining activity at 10 µM (LKB1): 50%
- percentage of kinase activity compared with control (NUAK1): 36 ± 11%
- remaining activity at 10 µM (PIM1): 90 ± 14%
- remaining activity at 10 µM (ROCK2): 7 ± 2%
- percentage of kinase activity compared with control (p38α MAPK): 98 ± 1%
- remaining activity at 10 µM (PAK5): 113 ± 7%
- percentage of kinase activity compared with control (JNK1): 105 ± 9%
- remaining activity at 10 µM (SmMLCK): 66 ± 3%
- remaining activity at 10 µM (Src): 111 ± 2%
- remaining activity at 10 µM (IGF-1R): 91 ± 9%
- remaining activity at 10 µM (MST2): 44 ± 4%
- remaining activity at 10 µM (SRPK1): 90 ± 12%

Compound: CCN(CC)CCNC(=O)c1c(C)[nH]c(/C=C2\C(=O)Nc3ccc(F)cc32)c1C [Sunitinib, sunitinib]
- percentage of kinase activity compared with control (VEGFR; 0.1 μM inhibitor): 33 ± 0%
- percentage of kinase activity compared with control (VEGFR; 1 μM inhibitor): 9 ± 0%
- remaining activity at 1 µM (LRRK2 wild-type): 9%
- percentage of kinase activity compared with control (CHK1; 1 μM inhibitor): 33 ± 3%
